Data: PubChem BioAssay AID651644 (National Center for Advancing Translational Sciences (NCATS), 2012)
The list shows a part of the results, in another mix than the full data. Some results for these compounds are left out of this collection, so the calls shown say nothing about other tests. Activity calls are given as the source filed them. The call rests on the fitted dose curve; in most records, active means well fitted falling curve with a large enough effect; inconclusive means small, poorly fitted or top-dose-only effect; inactive means no such curve, though single readings can be large or run the other way.

Assay: qHTS Assay for Inhibitors of the HIV-1 protein Vpr; further: nearly all actives have a fitted effect of over 50% in size
Conditions: S. pombe RE007 Vpr strain, BacTiter-Glo ATP luminescence, 24 h; at 92.2 µM (top of the series)
On the % scale 0 is the no-effect control and ±100 the full control effect.

Row | SMILES | activity change, negative = less growth
1 | COc1ccc(Cl)cc1C(=O)NCC1(N(C)C)CCCCC1 | inactive: -7%
2 | COc1cccc(C(=O)NCC2(N3CCCCC3)CCCCC2)c1 | inactive: -1.54%
3 | O=C(NCC1(N2CCCCC2)CCCCC1)c1cccc(Cl)c1 | inactive: -14.2%
4 | CN(C)C1(CNC(=O)c2ccc(Br)cc2)CCCCC1 | inactive: -19.9%
5 | COc1cc(C(=O)NCC2(N(C)C)CCCCC2)c([N+](=O)[O-])cc1OC | inactive: -1.26%
6 | COc1ccc(Br)c(C(=O)NCC2(N3CCCCC3)CCCCC2)c1 | inactive: -6.08%
7 | C=C(C)C#CC(O)(C(=O)OC1CCN(C)CC1)c1ccccc1 (stereo unspecified) | inactive: 17.2%
8 | CN(C)c1cccc(C(=O)NCC2(N(C)C)CCCCC2)c1 | inactive: 4.44%
9 | O=C(OCCN1CCCC1)C(O)(c1ccccc1)c1ccccc1 | inactive: -0.61%
10 | CC(C)Oc1ccc(C(=O)NCC2(N(C)C)CCCCC2)cc1 | inactive: 15.9%
11 | O=C(OC1CN2CCC1CC2)C(CO)(c1ccccc1)c1ccccc1 (stereo unspecified) | inactive: -6.01%
12 | CC(C)N1C(=O)CC2(CCN(CCOC(=O)C(O)(c3ccccc3)c3ccccc3)CC2)C1=O | inactive: 0.621%
13 | COc1cc(SC)ccc1C(=O)NCC1(N(C)C)CCCCC1 | inactive: 4.82%
14 | CCN(CC)CC(C)C(C)OC(=O)C(O)(c1ccccc1)c1ccccc1 (stereo unspecified) | inactive: -6.25%
15 | Cc1ccc(C(=O)NCC2(N3CCCCC3)CCCCC2)cc1 | inactive: -10.9%
16 | O=C(NCC1(N2CCCCC2)CCCCC1)c1cc([N+](=O)[O-])ccc1Cl | inactive: -13.1%
17 | CN1[C@@H]2CC[C@H]1CC(OC(=O)C(O)(c1ccccc1)c1ccccc1)C2 (stereo partly specified) | inactive: -3.46%
18 | O=C(NCC1(N2CCCCC2)CCCCC1)c1cc(F)c(F)cc1Cl | inactive: 7.08%
19 | C=CCN1CCN(CCOC(=O)C(O)(c2ccccc2)c2ccccc2)CC1 | inactive: 0.572%
20 | O=C(NCC1(N2CCCCC2)CCCCC1)c1cccc(Br)c1 | inactive: 5.53%
21 | Cc1cc(C(=O)NCC2(N3CCCCC3)CCCCC2)ccc1[N+](=O)[O-] | inactive: -17.4%
22 | CCN1CCCC(OC(=O)C2(O)c3ccccc3C=Cc3ccccc32)C1 (stereo unspecified) | inactive: -0.12%
23 | COc1ccc(C(=O)NCC2(N(C)C)CCCCC2)cc1 | inactive: 11.3%
24 | CN(C)C1CCCC1OC(=O)C(O)(c1ccccc1)c1ccccc1 (stereo unspecified) | inactive: 5.98%
25 | CN(C)c1ccc(C(=O)NCC2(N(C)C)CCCCC2)cc1 | inactive: 8.8%
26 | Cc1ccccc1C(=O)NCC1(N2CCCCC2)CCCCC1 | inactive: -2.78%
